We go through one compound from publication PMC5519068 (PLoS ONE, 2017).

In the assay the test system is patient-derived Flt3-ITD+ AML bone marrow cells. As to the kind of experiment: Apoptosis by flow cytometry for cell-surface phosphatidylserine in primary AML samples. It is filed as cell-based, human.

Turning to `COc1cc2c(N3CCN(C(=O)Nc4ccc(OC(C)C)cc4)CC3)ncnc2cc1OCCCN1CCCCC1` [Tandutinib, reference compound], the “Response of patient samples” value is “unresponsive”.
